These are literature values, as cited in patent US7582602B2, “Hirulog-like peptide and gene therapy” (priority 2000, dated 2009).

For the data set the following is noted: human; cited from earlier work.

On to `CC[C@H](C)[C@H](NC(=O)[C@H](CCC(=O)O)NC(=O)[C@H](CCC(=O)O)NC(=O)[C@H](Cc1ccccc1)NC(=O)[C@H](CC(=O)O)NC(=O)CNC(=O)[C@H](CC(N)=O)NC(=O)CNC(=O)CNC(=O)CNC(=O)CNC(=O)[C@@H]1CCCN1C(=O)[C@H](CCCNC(=N)N)NC(=O)[C@@H]1CCCN1C(=O)[C@H](N)Cc1ccccc1)C(=O)N1CCC[C@H]1C(=O)N[C@@H](CCC(=O)O)C(=O)N[C@@H](CCC(=O)O)C(=O)N[C@@H](Cc1ccc(O)cc1)C(=O)N[C@@H](CC(C)C)C(=O)O` [Hirulog-1, reference compound], for which the plasma half-life is 15 to 20 min.
